Results taken from article PMC4498724 (Drug Design, Development and Therapy, 2015).
Several values for one entry are separate records, joined by “and”; a condition that tells them apart may be missing. Equal values may be shown once.

Protein sequences, listed by entry. Tags and fused reporters are not part of them.
UniProt P68400, whole entry: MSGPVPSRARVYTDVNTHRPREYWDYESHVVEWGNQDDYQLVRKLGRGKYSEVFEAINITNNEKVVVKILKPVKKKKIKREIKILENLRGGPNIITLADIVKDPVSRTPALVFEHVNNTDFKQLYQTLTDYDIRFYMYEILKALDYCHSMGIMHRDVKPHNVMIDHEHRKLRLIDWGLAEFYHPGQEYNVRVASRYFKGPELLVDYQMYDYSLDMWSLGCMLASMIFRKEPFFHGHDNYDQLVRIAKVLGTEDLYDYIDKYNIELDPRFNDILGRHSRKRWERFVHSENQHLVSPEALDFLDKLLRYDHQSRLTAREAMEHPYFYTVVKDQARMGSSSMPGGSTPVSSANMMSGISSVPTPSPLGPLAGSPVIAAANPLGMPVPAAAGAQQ

Biological target: human CK2 holoenzyme (Homo sapiens, UniProt P68400)
Details: IC50 (CK2) divided by IC50 (ABCG2) of Table 1

Cc1cc(=O)c2c3c(=O)c4ccccc4c3n(CCc3ccccc3)c2c1=O [Compound 6f, 7-Methyl-5-(2-phenylethyl)-5H-indeno[1,2-b]indole-6,9,10-trione]
AGCG2/CK2: 5–27 and 5
